Measurements: publication PMC8558867, “Development of BromoTag: A “Bump-and-Hole”–PROTAC System to Induce Potent, Rapid, and Selective Degradation of Tagged Target Proteins” (Journal of Medicinal Chemistry, 2021)

Tests used:
[1] = test system: BromoTag-Brd2; test: Dose–response degradation assay (western blot, 6 h) in heterozygous BromoTag-Brd2 HEK293 cells; type: cell-based, human; conditions: for pDmax (%) (Ab: Brd4BD2 L387A) / pDmax (%) (Ab:Brd2): supplementary CSV; for Dmax (%) (Ab: Brd^4BD2 L387A) / Dmax (%) (Ab: BromoTag-Brd2): 6 h, eight-point 10 μM to 1 nM
[2] = test system: 22RV1 cells; test: CellTiter-Glo 2.0 cell viability assay, 22RV1; type: cell-based; conditions: Homo sapiens; 22RV1, 48 Hours, mean ±S.E.M, N = 2; read-out: pEC50 (cell viability) (converted)
[3] = BromoTagged-Brd2, 6 h, diastereomeric mixtures

SMILES	Dmax (%) (Ab: Brd2) [1, 3]	Dmax (%) (Ab: Brd4^BD2 L387A) [1, 3]	pDmax (%) (Ab: Brd4BD2 L387A) [1]	pDmax (%) (Ab:Brd2) [1]	Dmax (%) (Ab: Brd^4BD2 L387A) [1]	Dmax (%) (Ab: BromoTag-Brd2) [1]	EC50 [2] [nM]
CCC(C(=O)OCCOCCOCCOCC(=O)N[C@H](C(=O)N1C[C@H](O)C[C@H]1C(=O)NCc1ccc(-c2scnc2C)cc1)C(C)(C)C)C1N=C(c2ccc(Cl)cc2)c2c(sc(C)c2C)-n2c(C)nnc21 (relative stereo) [ET-OMZ1 (23), (S)-13-((2S,4R)-4-Hydroxy-2-((4-(4-methylthiazol-5-yl)benzyl)carbamoyl)pyrrolidine-1-carbonyl)-14,14-dimethyl-11-oxo-3,6,9-trioxa-12-azapentadecyl (R*)-2-((S*)-4-(4-chlorophenyl)-2,3,9-trimethyl-6H-thieno[3,2-f][1,2,4]triazolo[4,3-a][1,4]diazepin-6-yl)butanoate]	96	90	90	96			
CC[C@@H](C(=O)NCCOCCOCCOCC(=O)N[C@H](C(=O)N1C[C@H](O)C[C@H]1C(=O)NCc1ccc(-c2scnc2C)cc1)C(C)(C)C)[C@@H]1N=C(c2ccc(Cl)cc2)c2c(sc(C)c2C)-n2c(C)nnc21 [AGB3 (48), (2S,4R)-1-((2S,17R)-2-(tert-Butyl)-17-((S)-4-(4-chlorophenyl)-2,3,9-trimethyl-6H-thieno[3,2-f][1,2,4]triazolo[4,3-a][1,4]diazepin-6-yl)-4,16-dioxo-6,9,12-trioxa-3,15-diazanonadecanoyl)-4-hydroxy-N-(4-(4-methylthiazol-5-yl)benzyl)pyrrolidine-2-carboxamide]			92	96	92	96	
CC[C@@H](C(=O)OCCOCCOCCOCC(=O)N[C@H](C(=O)N1C[C@H](O)C[C@H]1C(=O)NCc1ccc(-c2scnc2C)cc1)C(C)(C)C)[C@@H]1N=C(c2ccc(Cl)cc2)c2c(sc(C)c2C)-n2c(C)nnc21 [AGB1 (46), (S)-13-((2S,4R)-4-Hydroxy-2-((4-(4-methylthiazol-5-yl)benzyl)carbamoyl)pyrrolidine-1-carbonyl)-14,14-dimethyl-11-oxo-3,6,9-trioxa-12-azapentadecyl (R)-2-((S)-4-(4-chlorophenyl)-2,3,9-trimethyl-6H-thieno[3,2-f][1,2,4]triazolo[4,3-a][1,4]diazepin-6-yl)butanoate]			99	97	99	97	
CN[C@@H]1C[C@H]2O[C@@](C)([C@@H]1OC)n1c3ccccc3c3c4c(c5c6ccccc6n2c5c31)C(=O)NC4 [Staurosporine]							251
